Molecular target: D(2) dopamine receptor (Rattus norvegicus, UniProt P61169)
Assay: Inhibitory activity against dopamine receptor D2 by 3H ligand binding experiments.
Procedure, shortened: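 Competition binding used rat striatal synaptic membranes (10 mg wet tissue per assay) with [3H]spiperone. Test compounds spanned 0.01–1000 μM. Assays were started by adding tissue and stopped by rapid glass-fibre filtration with ice-cold buffer washes. Filters were solubilised and radioactivity counted.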

By UniProt entry, the sequences of proteins in these tests, tags left out.
UniProt P61169, whole entry: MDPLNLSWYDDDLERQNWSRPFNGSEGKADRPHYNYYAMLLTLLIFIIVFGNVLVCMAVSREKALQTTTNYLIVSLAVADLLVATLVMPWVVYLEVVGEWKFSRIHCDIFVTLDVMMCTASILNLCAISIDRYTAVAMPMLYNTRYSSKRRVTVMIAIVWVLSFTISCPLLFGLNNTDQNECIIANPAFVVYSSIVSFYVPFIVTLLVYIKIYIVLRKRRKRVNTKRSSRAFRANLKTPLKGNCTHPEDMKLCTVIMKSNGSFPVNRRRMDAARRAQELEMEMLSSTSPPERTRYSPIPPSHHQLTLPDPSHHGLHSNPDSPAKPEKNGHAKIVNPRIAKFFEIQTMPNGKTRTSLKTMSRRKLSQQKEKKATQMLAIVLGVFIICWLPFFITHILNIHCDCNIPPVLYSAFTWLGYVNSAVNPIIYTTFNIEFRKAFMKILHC

## COc1cc(N)c(Cl)cc1C(=O)NC1CCN(CCCOc2ccc(F)cc2)CC1OC (stereo unspecified) [CISAPRIDE]
  IC50: 390 nM

— ChEMBL document CHEMBL1125819, “Novel benzamides as selective and potent gastrokinetic agents. 2. Synthesis and structure-activity relationships of 4-amino-5-chloro-2-ethoxy-N-[[4-(4-fluorobenzyl)-2- morpholinyl]methyl] benzamide citrate (AS-4370) and related compounds” (J Med Chem, 1991)
